ChEMBL document CHEMBL3886441, “Substituted pyrrolo[2,3-h][1,6]naphthyridines and compositions thereof as JAK inhibitors” (2015)

By UniProt entry, the sequences of proteins in these tests, tags left out. Where a name states a change or a piece, a line headed by the entry shows the natural chain unless it says otherwise.
UniProt P29597: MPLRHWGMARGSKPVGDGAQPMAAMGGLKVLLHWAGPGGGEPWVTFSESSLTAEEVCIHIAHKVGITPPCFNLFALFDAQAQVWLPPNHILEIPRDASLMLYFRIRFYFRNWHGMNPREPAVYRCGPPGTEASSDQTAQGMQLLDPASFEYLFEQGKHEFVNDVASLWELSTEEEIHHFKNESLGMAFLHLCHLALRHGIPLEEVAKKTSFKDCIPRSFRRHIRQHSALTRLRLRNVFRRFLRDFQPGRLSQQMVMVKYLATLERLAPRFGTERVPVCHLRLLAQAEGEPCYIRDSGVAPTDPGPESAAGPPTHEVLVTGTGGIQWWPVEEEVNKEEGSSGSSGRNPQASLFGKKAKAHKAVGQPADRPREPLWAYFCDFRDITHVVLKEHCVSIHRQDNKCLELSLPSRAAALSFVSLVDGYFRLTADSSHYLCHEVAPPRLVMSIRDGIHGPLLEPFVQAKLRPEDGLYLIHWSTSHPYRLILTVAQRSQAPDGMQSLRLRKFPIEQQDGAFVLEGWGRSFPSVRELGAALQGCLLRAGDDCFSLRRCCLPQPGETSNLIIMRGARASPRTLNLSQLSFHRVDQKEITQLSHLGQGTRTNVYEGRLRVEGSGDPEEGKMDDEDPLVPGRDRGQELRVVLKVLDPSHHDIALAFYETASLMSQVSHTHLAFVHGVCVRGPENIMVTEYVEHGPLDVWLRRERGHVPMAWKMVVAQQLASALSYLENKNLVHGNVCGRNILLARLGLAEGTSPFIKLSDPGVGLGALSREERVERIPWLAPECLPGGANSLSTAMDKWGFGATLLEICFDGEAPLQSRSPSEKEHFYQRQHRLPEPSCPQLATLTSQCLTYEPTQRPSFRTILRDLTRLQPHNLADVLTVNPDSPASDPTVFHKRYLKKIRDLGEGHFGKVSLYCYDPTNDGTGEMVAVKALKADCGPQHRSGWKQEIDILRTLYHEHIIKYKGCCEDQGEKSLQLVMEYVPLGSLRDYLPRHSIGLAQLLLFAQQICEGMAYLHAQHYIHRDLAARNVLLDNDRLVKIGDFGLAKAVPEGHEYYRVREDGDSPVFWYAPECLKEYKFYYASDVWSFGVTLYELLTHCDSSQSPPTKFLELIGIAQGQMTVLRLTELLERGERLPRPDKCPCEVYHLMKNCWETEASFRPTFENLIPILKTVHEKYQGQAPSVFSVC
UniProt P23458: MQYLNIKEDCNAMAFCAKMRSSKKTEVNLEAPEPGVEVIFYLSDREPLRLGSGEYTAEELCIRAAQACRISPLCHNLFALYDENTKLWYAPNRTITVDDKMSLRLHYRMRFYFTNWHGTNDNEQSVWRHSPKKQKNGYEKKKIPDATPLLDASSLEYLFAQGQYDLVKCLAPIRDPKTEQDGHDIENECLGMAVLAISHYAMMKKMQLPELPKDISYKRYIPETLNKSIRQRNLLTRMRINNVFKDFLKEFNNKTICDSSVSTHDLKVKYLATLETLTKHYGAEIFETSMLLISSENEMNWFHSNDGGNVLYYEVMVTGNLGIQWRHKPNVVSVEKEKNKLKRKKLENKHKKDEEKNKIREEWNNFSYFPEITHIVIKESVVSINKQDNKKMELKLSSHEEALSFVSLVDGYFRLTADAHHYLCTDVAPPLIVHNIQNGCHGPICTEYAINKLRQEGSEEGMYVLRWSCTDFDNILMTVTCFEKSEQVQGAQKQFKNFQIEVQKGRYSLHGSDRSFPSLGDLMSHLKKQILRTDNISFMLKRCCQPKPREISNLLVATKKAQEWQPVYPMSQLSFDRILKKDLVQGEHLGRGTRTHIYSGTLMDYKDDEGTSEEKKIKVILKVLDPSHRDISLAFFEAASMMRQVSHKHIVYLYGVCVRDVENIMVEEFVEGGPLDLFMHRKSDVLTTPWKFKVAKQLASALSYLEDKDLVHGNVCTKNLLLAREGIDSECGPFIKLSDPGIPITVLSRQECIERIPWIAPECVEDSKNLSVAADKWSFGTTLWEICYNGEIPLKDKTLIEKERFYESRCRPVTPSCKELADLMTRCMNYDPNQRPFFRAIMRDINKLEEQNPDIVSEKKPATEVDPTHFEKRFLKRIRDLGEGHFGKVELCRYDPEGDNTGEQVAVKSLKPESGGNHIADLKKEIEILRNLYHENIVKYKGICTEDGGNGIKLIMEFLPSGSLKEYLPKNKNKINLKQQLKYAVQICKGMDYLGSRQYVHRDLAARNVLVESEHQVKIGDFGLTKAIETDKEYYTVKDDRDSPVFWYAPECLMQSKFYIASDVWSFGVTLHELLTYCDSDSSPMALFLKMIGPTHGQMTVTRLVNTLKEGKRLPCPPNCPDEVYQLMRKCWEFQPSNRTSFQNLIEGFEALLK
UniProt O60674: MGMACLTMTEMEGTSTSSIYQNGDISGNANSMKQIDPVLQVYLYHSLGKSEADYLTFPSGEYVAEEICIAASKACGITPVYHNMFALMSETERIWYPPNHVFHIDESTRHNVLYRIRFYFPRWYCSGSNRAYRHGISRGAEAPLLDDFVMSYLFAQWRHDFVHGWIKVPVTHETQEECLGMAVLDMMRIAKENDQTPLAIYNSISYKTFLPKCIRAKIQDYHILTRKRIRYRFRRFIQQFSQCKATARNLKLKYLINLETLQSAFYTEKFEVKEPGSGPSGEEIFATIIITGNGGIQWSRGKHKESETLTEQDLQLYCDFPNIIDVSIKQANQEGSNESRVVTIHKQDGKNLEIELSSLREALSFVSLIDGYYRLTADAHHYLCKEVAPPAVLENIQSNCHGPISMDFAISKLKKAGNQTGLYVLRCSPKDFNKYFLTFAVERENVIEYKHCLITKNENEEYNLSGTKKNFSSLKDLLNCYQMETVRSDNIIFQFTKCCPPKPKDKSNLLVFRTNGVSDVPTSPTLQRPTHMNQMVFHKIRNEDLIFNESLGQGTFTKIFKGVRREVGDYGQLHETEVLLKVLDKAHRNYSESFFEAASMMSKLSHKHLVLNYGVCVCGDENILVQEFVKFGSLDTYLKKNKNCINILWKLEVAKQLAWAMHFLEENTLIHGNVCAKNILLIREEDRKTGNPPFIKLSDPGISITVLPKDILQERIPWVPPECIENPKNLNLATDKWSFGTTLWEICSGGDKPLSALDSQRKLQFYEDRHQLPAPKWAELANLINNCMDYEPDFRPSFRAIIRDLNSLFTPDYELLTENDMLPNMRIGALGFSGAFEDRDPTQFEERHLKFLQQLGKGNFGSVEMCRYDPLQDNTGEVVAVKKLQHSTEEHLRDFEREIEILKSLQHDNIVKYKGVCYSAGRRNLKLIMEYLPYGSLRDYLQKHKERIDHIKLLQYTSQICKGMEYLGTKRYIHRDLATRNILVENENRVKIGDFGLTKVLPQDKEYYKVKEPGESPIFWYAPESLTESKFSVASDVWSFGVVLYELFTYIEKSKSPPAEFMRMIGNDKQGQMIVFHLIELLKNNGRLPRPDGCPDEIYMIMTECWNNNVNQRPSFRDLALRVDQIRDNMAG

How the values were obtained:
[1] = biological target: Non-receptor tyrosine-protein kinase TYK2 (Homo sapiens, UniProt P29597); experiment: Enzyme Assay: JAK1, JAK2, JAK3 and Tyk2 were purchased from Carna Biosciences, Inc. As the substrate, LANCE Ultra ULight-JAK1 Peptide (manufactured by PerkinElmer Co., Ltd. (PE)) was used. Dilute solutions of compounds and enzymes in assay buffer (50 mM HEPES pH7.5, 1 mM EGTA, 1 mM MgCl2, 2 mM DTT, 0.01% Tween20) were dispensed into wells of a 384-well black plate. After 5 minutes of …
[2] = biological target: Tyrosine-protein kinase JAK1 (Homo sapiens, UniProt P23458)
[3] = biological target: Tyrosine-protein kinase JAK2 (Homo sapiens, UniProt O60674); experiment: Enzyme Assay: JAK1, JAK2, JAK3 and Tyk2 were purchased from Carna Biosciences, Inc. As the substrate, LANCE Ultra ULight-JAK1 Peptide (manufactured by PerkinElmer Co., Ltd. (PE)) was used. Dilute solutions of compounds and enzymes in assay buffer (50 mM HEPES pH7.5, 1 mM EGTA, 1 mM MgCl2, 2 mM DTT, 0.01% Tween20) were dispensed into wells of a 384-well black plate. After 5 minutes of …

## N#Cc1ccc(CN2CCCC(c3nnn4cnc5[nH]ccc5c34)C2)cc1 (racemic)
[1]
  IC50: 880 nM
[2]
  IC50: 61 nM
[3]
  IC50: 560 nM
